Among the data in PMC3761409 (Journal of molecular recognition : JMR, 2013) are ΔH values, retold here.

The chains behind the UniProt entries cited, without tags or fusion partners. Residues count along the entry.
UniProt P10415, 1-205: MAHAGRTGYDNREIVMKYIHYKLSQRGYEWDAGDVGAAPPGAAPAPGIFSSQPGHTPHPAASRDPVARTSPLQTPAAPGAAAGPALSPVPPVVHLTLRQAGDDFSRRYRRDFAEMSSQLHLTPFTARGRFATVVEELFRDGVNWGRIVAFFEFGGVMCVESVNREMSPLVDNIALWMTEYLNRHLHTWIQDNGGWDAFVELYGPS

The test concerns the target Human Bcl2 (residues 1-205) (Homo sapiens, UniProt P10415). Nature of the test: Isothermal titration calorimetry. The following applies: ITC, one-site binding model, Sodium phosphate buffer containing 100mM NaCl, 25°C, pH 7, ± one SD of at least three independent measurements.

As to `CSCC[C@H](NC(=O)[C@H](CCCNC(=N)N)NC(=O)[C@H](CCCNC(=N)N)NC(=O)[C@H](CC(C)C)NC(=O)[C@H](CCC(=O)O)NC(=O)[C@H](C)NC(=O)CNC(=O)[C@H](Cc1ccc(O)cc1)NC(=O)[C@H](CCCNC(=N)N)NC(=O)[C@H](CCC(N)=O)NC(=O)[C@H](C)NC(=O)[C@H](C)NC(=O)[C@@H](N)Cc1c[nH]c2ccccc12)C(=O)N[C@@H](C)C(=O)N[C@@H](CC(=O)O)C(=O)N[C@@H](CCC(=O)O)C(=O)N[C@@H](Cc1ccccc1)C(=O)N[C@H](C(=O)N[C@@H](CC(=O)O)C(=O)N[C@@H](CO)C(=O)O)C(C)C` [Bad_S+4A], the ΔH was -6.16 ± 0.16 kcal/mol.
The value for `CSCC[C@H](NC(=O)[C@H](CCCNC(=N)N)NC(=O)[C@H](CCCNC(=N)N)NC(=O)[C@H](CC(C)C)NC(=O)[C@H](CCC(=O)O)NC(=O)[C@H](C)NC(=O)CNC(=O)[C@H](Cc1ccc(O)cc1)NC(=O)[C@H](CCCNC(=N)N)NC(=O)[C@H](CCC(N)=O)NC(=O)[C@H](C)NC(=O)[C@H](C)NC(=O)[C@@H](N)Cc1c[nH]c2ccccc12)C(=O)NCC(=O)N[C@@H](CC(=O)O)C(=O)N[C@@H](CCC(=O)O)C(=O)N[C@@H](Cc1ccccc1)C(=O)N[C@H](C(=O)N[C@@H](CC(=O)O)C(=O)N[C@@H](CO)C(=O)O)C(C)C` [Bad_S+4G] was -5.75 ± 0.05 kcal/mol.
